Experimental data published in ChEMBL document CHEMBL1138041, “Parallel artificial membrane permeability assay: a new membrane for the fast prediction of passive human skin permeability” (J Med Chem, 2006).

Organism: Homo sapiens

## O=C(O)c1ccccc1O [SALICYLIC ACID]
  log Kp: -5.45 cm/s
